Antibody variant affinities, Ab-14 heavy chain, assay B

Reference: Li et al. 2023, doi:10.1038/s41467-023-39022-2. File: FLAb, binding data.

Antigen: PDVDLGDISGINAS, a 14-residue peptide of the SARS-CoV-2 spike HR2 region.

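The parent was found by panning a naive human phage display library on the peptide. Designed CDR sequences, proposed from the first random library and measured here. Several design methods are mixed in this list. AlphaSeq pools MATa yeast showing the antibodies with MATalpha yeast showing the peptide. Pairs that bind mate more often; barcode pairs of the diploids are counted by sequencing. A regression on co-assayed BCL2-family reference pairs converts the normalised counts of each replicate to an apparent Kd. Mating was done six times.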

The variants keep the light chain, the linker and the frameworks of Ab-14 (scFv order VH, a 15-residue (Gly4Ser)3 linker, VL).
VH: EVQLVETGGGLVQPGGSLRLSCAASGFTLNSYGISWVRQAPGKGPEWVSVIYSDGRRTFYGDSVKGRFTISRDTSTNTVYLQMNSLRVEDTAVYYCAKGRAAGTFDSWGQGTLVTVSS
VL: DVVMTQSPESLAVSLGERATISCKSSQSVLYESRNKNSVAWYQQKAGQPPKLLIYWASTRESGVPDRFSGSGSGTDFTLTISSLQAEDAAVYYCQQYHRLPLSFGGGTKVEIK

The parent's heavy chain CDRs are GFTLNSYGIS, VIYSDGRRTFYGDSVK, GRAAGTFDS; each variant's own CDRs replace them letter for letter.
The Kd shown is the geometric mean over detected replicates; a lower Kd is a better binder.
"no signal" marks a missing value. The strain was present, yet no cells mated with the target were sequenced in any replicate, which points to weak or no binding.
Entries are sorted by rising average, undetected variants last.
The range of this assay differs from that of the first round, and the authors advise against merging the two.

Kd (apparent) | seen in | control signals | CDR-H1 | CDR-H2 | CDR-H3
240 pM | 6/6 | 0/18 | GFSLNEYGIS | VIYSDGRRTFYADSVK | GRLAGTFDS
300 pM | 6/6 | 0/18 | GFDLNEYGIS | VIYADGRRTAYADSVK | GHAAGTFDS
410 pM | 5/6 | 1/18 | GFTLDDYGIS | VIYSDGRRTFYGDSVK | GFAAGTFDS
430 pM | 6/6 | 0/18 | GFDLNEYGIS | VIYADGRRTFYADSVK | GNTAGTFLD
440 pM | 6/6 | 0/18 | GFNLDEYGIS | VIYADGRRTFYADNVK | GEAAGTFDI
490 pM | 6/6 | 1/18 | GFDLNEYGIS | VIYADGMRTAYSDSVK | GVNAGTFDI
530 pM | 6/6 | 0/18 | GFNLNEYGIS | VIYADGMRTFYTDSVK | GETAGTFDE
650 pM | 6/6 | 0/18 | GFDLNEYGIS | VIYADGKRTFYADSVK | GNTAGTFDV
950 pM | 6/6 | 1/18 | GFELNSYGIS | VIYSDGRRTFYTDSVK | GQEAGTFDS
960 pM | 6/6 | 0/18 | GFDLNSYGIS | VIYSDGRRTAYHDSVK | GRAAGTFDS
960 pM | 6/6 | 0/18 | GFDLNTYGIS | VIYSDGRRTFYHDSVK | GQAAGTFDS
1.1 nM | 6/6 | 1/18 | GFDLNEYGIS | VIYADGQRTYYADSVK | GEVAGTFDL
1.2 nM | 6/6 | 0/18 | GFDLNEYGIS | VIYADGRRTAYSDSVK | GNAGGTFDV
1.3 nM | 6/6 | 1/18 | GFELNSYGIS | VIYADGRRTFYGDSVK | GKAAGTFDF
1.8 nM | 6/6 | 1/18 | HFDLNSYGIS | VIYSDGRRTFYHDSVK | GRTAGTFDS
1.9 nM | 6/6 | 0/18 | GFSLNSYGIS | VIYADGRRTFYGDQVK | GRTAGTFDS
2.4 nM | 6/6 | 1/18 | GFDLNSYGIS | VIYSDGKRTFYADSVK | GNAAGTFDS
2.7 nM | 6/6 | 1/18 | GFDLNSYGIS | VIYSDGRRTFYEDSVK | GRQAGTFDS
3.6 nM | 6/6 | 1/18 | KFDLNSYGIS | VIYSDGKRTFYADSVK | GRMAGTFDS
5.2 nM | 6/6 | 0/18 | GFQLNEYGIS | VIYSDGRRTFYSDSVK | GEAAGTFDS
5.3 nM | 6/6 | 0/18 | GFTLNEYGIS | VIYSDGRRTFYTDSVK | GVSAGTFDS
5.6 nM | 6/6 | 0/18 | GFDLNSYGIS | VIYSDGKRTFYGDSVK | GQTAGTFDS
6.2 nM | 5/6 | 0/18 | GFSLNSYGIS | VIYSDGRRTFYGDHVK | GEAAGTFDS
7.2 nM | 6/6 | 0/18 | GFTLNMYGIS | VIYSDGMRTFYSDSVK | GRAAGTFDS
8.0 nM | 6/6 | 0/18 | GFELNSYGIS | VIYSDGKRTFYADSVK | GQAAGTFDS
8.1 nM | 6/6 | 0/18 | GFTLNSYGIS | VIYSDGMRTFYGDSVK | GREAGTFDT
10 nM | 6/6 | 1/18 | GFDLNSYGIS | VIYSDGRRTFYVDSVK | GNAAGTFDA
11 nM | 3/6 | 0/18 | GFDLDEYGIS | VIYADGMRTAYADSVK | GENAGTFDT
12 nM | 6/6 | 0/18 | GFSLNSYGIS | VIYSDGRRTFYGDSVK | GKTAGTFDG
20 nM | 6/6 | 1/18 | GFDLNSYGIS | VIYSDGRRTFYGDRVK | GQAAGTFDL
22 nM | 6/6 | 2/18 | GMTLNDYGIS | VIYSDGRRTQYIDSVK | GRAAGTFDS
59 nM | 6/6 | 0/18 | GGDIQEYGIS | VIYADGQRASYADAVK | GNIGGIFSD
73 nM | 5/6 | 0/18 | GFFLNDYGIS | VIYSDGRRTFYKDSVK | GTAAGTFDS
110 nM | 5/6 | 1/18 | GFSLNSYGIS | VIYSDGRRTFYGDSVK | GQAAGTFDT
200 nM | 1/6 | 0/18 | GFTLRSYGIS | VIYSDGRRTFYGDSVK | GRAPGTFDS
200 nM | 6/6 | 0/18 | GFVLNEYGIS | VIYSDGRRTFYGDSVK | GRAAGTFDQ
no signal | 0/6 | 0/18 | GFNLNSYGYS | VIYSDGRRTFYGDSVK | GRAAGTFDS
no signal | 0/6 | 0/18 | GFSLDEMGIS | VIYADGVRTAYVDQVK | GMGGTFMND
no signal | 0/6 | 0/18 | GYDLNEYGIS | VIYADGRRAAYIDDVK | GNVNDHVLV
no signal | 0/6 | 1/18 | GMNIDEYGIS | VIYADGMRTAYSNAVK | GIVGGDTFS
no signal | 0/6 | 0/18 | GFDLNSYGIS | VIYSDGRRTFYGDSVK | GRNAGTFWS
no signal | 0/6 | 1/18 | GESLNEYGIS | VIYADGVRSGYTDQVK | GVNTGAVLD
no signal | 0/6 | 0/18 | GFSLNSYGIS | VIYSDGRRTFYVDSVK | GKTAGTFDS
no signal | 0/6 | 0/18 | GFTLNSYGIS | VIYADGRRTFMGDSVK | GRLADHFDS
no signal | 0/6 | 0/18 | GYSLNEFGIS | VIYADGLRVAYADDVK | GNIAGHFLS
no signal | 0/6 | 0/18 | GFTLNSYGID | VIYSDGRRTFYDDSVK | GQLAGTFDS
no signal | 0/6 | 0/18 | GFTLNSYGWS | VIYSDGRHTFYDDSVK | GQLAGTFDS
no signal | 0/6 | 0/18 | GFDANSYGIS | VIYSDGRRTFYGDYVK | GRAAGWFNS
no signal | 0/6 | 0/18 | GFDLQEYGIS | VIYADGQRANYVSQVK | GEQAGGFVL
no signal | 0/6 | 0/18 | GFVLNEYGIS | VIYSDGRRTFYGDSVK | GRMAGTFDS
no signal | 0/6 | 1/18 | GMDLNEYGIS | VIYADGQRRAYAANFK | GVNIDGFDQ
no signal | 0/6 | 0/18 | GEDLDEYGIS | VIYADGQRTAYDESVK | GKIAGSFFH
no signal | 0/6 | 0/18 | GFTLNSYGIS | VIYSDGRRTSYGDSVK | GREAGRFDS

From the list, the first 9 with no signal in any replicate:

CDR-H1 | CDR-H2 | CDR-H3 | Kd (apparent) | seen in | control signals
GFNLNSYGYS | VIYSDGRRTFYGDSVK | GRAAGTFDS | no signal | 0/6 | 0/18
GFSLDEMGIS | VIYADGVRTAYVDQVK | GMGGTFMND | no signal | 0/6 | 0/18
GYDLNEYGIS | VIYADGRRAAYIDDVK | GNVNDHVLV | no signal | 0/6 | 0/18
GMNIDEYGIS | VIYADGMRTAYSNAVK | GIVGGDTFS | no signal | 0/6 | 1/18
GFDLNSYGIS | VIYSDGRRTFYGDSVK | GRNAGTFWS | no signal | 0/6 | 0/18
GESLNEYGIS | VIYADGVRSGYTDQVK | GVNTGAVLD | no signal | 0/6 | 1/18
GFSLNSYGIS | VIYSDGRRTFYVDSVK | GKTAGTFDS | no signal | 0/6 | 0/18
GFTLNSYGIS | VIYADGRRTFMGDSVK | GRLADHFDS | no signal | 0/6 | 0/18
GYSLNEFGIS | VIYADGLRVAYADDVK | GNIAGHFLS | no signal | 0/6 | 0/18

The authors' rule: three or more of the six replicates give a measured affinity, fewer mean a poor binder.
Three control strains display no target. For all heavy chain designs, 1% of the pairings with them gave a signal, with a median of 120 nM and one signal in twenty below 7.0 nM, so weak values seen in few replicates may be background. The control count says in how many pairings with the empty strains this scFv gave a signal.